Test results as given in ChEMBL document CHEMBL2417445, “Access to 7β-analogs of codeine with mixed μ/δ agonist activity via 6,7-α-epoxide opening” (Bioorg Med Chem Lett, 2013).

The chains behind the UniProt entries cited, without tags or fusion partners. Where a name states a change or a piece, a line headed by the entry shows the natural chain unless it says otherwise.
UniProt P41145: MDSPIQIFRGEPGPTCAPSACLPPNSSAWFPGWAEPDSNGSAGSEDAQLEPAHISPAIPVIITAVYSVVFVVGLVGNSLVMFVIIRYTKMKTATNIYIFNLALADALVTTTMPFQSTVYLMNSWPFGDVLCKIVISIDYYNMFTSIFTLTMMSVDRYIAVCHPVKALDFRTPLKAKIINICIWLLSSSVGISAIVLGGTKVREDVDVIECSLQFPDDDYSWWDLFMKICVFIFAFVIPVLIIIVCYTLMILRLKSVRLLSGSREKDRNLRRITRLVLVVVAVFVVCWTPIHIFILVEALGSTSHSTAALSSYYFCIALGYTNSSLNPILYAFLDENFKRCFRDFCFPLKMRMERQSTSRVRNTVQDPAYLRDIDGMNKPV

Target: Kappa-type opioid receptor (Homo sapiens, UniProt P41145)
Type: functional, cell-based

## COc1ccc2c3c1O[C@H]1C(=O)CC[C@@]4(O)[C@@H](C2)N(C)CC[C@]314 [OXYCODONE]
  EC50: 16 µM
